Test results as given in patent US20260382640A1, “USES OF FARNESOID X RECEPTOR AGONISTS” (published 2026).

Assays:
[1] = tested on: mouse model of alcoholic steatohepatitis; assay: Plasma/serum clinical chemistry (ALP, bilirubin, endotoxin, bile acids) in mouse alcoholic liver disease study; settings: vs vehicle treated ALD mice, FIG. 2
Excerpt: (§1) The objective of this study was to assess efficacy of the test articles obeticholic acid (OCA), Compound 1 and Compound 2 on liver and intestinal pathology in a mouse model of alcoholic steatohepatitis.
(§2) • Species: Mouse • Strain: C57BL/6J (JAX #000664) • Condition: Purpose-bred, naïve • Source: Jackson Laboratories • Number of Females: 138 (119 on study+19 spares) • Target Age at the 10 weeks • Initiation of Study:
(§3) Dose Route and timing: Oral Gavage (Group 2-7) Once Daily (Day 1-14). The first day of dosing was designated as Day 1 The dose formulations were stirred continuously during dosing. The doses were given using a syringe with attached gavage cannula.
Terminal plasma and tissue samples were gathered. Plasma was analyzed for TG, TC, ALT, AST, ALP, FGF15 (LCMS), TBIL, and endotoxin.

liver = assay: Liver histology (H&E, picrosirius red): steatosis and fibrosis; settings: in words; for fibrosis (Pico Sirius Red): 30 mpk, no fibrosis at baseline or in vehicle group
Protocol: as §3
The liver and small intestine collected from all animals in Groups 1-7 (Main Study) were fixed in 10% neutral buffered formalin for 24-48 hours and transferred to 70% EtOH, stored under ambient conditions and transferred to the histopathology lab at Testing Facility.
Formalin fixed liver tissues were trimmed to slides and stained with H&E and picrosirius red stains. Slides were scored by Charles River board certified veterinarian pathologists.

[2] = tested on: mouse model of alcoholic steatohepatitis; assay: Survival in mouse model of alcoholic steatohepatitis (Lieber-DeCarli ethanol diet); settings: for % Alive: Day 1-14, includes animals for PK; for survival: superior to the other two compounds
Excerpt: as §1, §2
Diet: 5CR4 chow until Day −26; Lieber-DeCarli liquid diet Days-28 to Day 15. Upon arrival at the Testing Facility, all animals were placed on PMI Nutrition International Certified Rodent Chow No. 5CR4 ad libitum. During the chow diet phase (until Day −26), the diet in meal form may be provided to individual animals as warranted by clinical signs (e.g., broken/damaged incisors or other health changes).
On Day −26, all animals received 50 mL ethanol diet (1% v/v ethanol). The percentage of alcohol in the liquid diet was increased by 1% v/v every day until reaching 5% (v/v) on day −22 and is maintained at 5% v/v until the end of the study.
as §3

Question: With `CC[C@H]1[C@@H](O)C2C3CC[C@H]([C@H](C)CCC(=O)O)[C@@]3(C)C[C@H](O)C2[C@@]2(C)CC[C@@H](O)C[C@@H]12` (stereo partly shown) as the compound, how does the serum bile acids ([1]; 10 mg/kg (lower of both doses)) read?
Answer: Its serum bile acids is “significantly lowered”.

Question: And the serum bile acids ([1]; 30 mg/kg (high dose))?
Answer: The serum bile acids was “significantly lowered”.

Question: And the “steatosis (graded 1-5 by a pathologist)” value (liver; 10 mpk)?
Answer: The value was “close to statistical significance”.

Question: What about the “fibrosis (Pico Sirius Red)” value (liver) of the same compound?
Answer: The value was “minimal increase”.

Question: What about the “% Alive” value ([2]; 10 mg/kg PO QD) of the same compound?
Answer: Its value is 79%.

Question: And the survival ([2]; 10 mg/kg, in words)?
Answer: The survival was “greatly improved survival”.

Question: And the “% Alive” value ([2]; 30 mg/kg PO QD)?
Answer: Its value is 68%.

Question: What about the survival ([2]; 30 mg/kg, in words) of the same compound?
Answer: Its survival is “greatly improved survival”.

Question: What about the “survival versus OCA” value ([2]; compared with OCA, in words) of the same compound?
Answer: The value was “improved survival better than OCA”.

Question: With `CC[C@H]1[C@@H](O)[C@@H]2[C@H](CC[C@]3(C)[C@@H]([C@H](C)CCC(=O)O)CC[C@@H]23)[C@@]2(C)CC[C@@H](O)C[C@@H]12` as the compound, how does the “fibrosis (Pico Sirius Red)” value (liver) read?
Answer: Its value is “minimal increase”.
